For 1 compound, Activity results are on record in ChEMBL document CHEMBL3627674, “Discovery of wrightiadione as a novel template for the TrkA kinase inhibitors” (Bioorg Med Chem Lett, 2015).

By UniProt entry, the sequences of proteins in these tests, tags left out. Where a name states a change or a piece, a line headed by the entry shows the natural chain unless it says otherwise.
UniProt P78368: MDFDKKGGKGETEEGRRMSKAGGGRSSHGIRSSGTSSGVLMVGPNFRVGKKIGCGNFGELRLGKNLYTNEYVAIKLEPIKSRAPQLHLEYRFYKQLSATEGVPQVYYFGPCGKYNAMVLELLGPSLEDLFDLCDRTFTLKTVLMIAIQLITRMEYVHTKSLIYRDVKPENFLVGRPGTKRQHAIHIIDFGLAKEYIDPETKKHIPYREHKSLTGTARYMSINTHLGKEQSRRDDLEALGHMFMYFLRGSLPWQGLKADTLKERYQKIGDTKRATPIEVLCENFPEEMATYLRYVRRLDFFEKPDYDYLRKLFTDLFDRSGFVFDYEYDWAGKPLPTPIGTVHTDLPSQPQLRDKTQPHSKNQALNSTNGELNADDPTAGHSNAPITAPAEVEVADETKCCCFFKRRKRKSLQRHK
UniProt P49137, whole entry, looked up: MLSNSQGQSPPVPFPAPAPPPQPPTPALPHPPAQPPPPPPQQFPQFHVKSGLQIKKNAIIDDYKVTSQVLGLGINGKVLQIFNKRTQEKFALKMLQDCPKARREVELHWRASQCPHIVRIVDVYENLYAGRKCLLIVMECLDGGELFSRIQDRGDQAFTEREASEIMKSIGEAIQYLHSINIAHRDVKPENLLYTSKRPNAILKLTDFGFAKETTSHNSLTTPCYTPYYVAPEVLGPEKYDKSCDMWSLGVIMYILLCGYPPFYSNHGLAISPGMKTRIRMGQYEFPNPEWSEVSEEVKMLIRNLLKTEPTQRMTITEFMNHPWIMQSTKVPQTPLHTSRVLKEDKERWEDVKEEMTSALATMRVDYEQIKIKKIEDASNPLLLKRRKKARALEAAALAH
UniProt P42336, whole entry: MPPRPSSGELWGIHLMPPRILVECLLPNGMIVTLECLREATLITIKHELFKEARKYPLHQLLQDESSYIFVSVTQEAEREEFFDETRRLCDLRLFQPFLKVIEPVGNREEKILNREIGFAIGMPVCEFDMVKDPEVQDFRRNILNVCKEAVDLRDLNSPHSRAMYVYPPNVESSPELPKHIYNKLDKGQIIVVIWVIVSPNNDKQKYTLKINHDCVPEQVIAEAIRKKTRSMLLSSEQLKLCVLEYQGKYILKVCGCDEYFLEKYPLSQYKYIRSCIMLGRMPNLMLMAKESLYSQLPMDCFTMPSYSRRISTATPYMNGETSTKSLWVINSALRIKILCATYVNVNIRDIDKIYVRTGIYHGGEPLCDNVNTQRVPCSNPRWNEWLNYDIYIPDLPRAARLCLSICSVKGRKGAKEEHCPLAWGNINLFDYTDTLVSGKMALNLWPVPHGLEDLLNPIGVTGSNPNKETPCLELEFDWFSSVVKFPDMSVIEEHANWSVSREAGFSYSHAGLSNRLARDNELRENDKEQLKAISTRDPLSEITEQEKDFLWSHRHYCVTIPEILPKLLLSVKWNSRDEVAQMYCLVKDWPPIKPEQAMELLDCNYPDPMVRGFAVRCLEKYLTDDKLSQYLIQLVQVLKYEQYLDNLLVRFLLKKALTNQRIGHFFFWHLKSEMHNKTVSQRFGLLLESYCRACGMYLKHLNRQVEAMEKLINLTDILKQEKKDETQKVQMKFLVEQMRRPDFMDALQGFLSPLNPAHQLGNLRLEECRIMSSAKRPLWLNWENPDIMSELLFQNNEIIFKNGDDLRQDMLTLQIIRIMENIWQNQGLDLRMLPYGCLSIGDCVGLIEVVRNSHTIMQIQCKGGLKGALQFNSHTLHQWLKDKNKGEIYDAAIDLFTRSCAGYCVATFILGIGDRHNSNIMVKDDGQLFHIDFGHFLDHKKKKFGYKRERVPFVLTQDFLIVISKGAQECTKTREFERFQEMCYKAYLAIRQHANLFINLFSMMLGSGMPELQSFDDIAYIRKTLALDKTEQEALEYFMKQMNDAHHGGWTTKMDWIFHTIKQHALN
UniProt P48736: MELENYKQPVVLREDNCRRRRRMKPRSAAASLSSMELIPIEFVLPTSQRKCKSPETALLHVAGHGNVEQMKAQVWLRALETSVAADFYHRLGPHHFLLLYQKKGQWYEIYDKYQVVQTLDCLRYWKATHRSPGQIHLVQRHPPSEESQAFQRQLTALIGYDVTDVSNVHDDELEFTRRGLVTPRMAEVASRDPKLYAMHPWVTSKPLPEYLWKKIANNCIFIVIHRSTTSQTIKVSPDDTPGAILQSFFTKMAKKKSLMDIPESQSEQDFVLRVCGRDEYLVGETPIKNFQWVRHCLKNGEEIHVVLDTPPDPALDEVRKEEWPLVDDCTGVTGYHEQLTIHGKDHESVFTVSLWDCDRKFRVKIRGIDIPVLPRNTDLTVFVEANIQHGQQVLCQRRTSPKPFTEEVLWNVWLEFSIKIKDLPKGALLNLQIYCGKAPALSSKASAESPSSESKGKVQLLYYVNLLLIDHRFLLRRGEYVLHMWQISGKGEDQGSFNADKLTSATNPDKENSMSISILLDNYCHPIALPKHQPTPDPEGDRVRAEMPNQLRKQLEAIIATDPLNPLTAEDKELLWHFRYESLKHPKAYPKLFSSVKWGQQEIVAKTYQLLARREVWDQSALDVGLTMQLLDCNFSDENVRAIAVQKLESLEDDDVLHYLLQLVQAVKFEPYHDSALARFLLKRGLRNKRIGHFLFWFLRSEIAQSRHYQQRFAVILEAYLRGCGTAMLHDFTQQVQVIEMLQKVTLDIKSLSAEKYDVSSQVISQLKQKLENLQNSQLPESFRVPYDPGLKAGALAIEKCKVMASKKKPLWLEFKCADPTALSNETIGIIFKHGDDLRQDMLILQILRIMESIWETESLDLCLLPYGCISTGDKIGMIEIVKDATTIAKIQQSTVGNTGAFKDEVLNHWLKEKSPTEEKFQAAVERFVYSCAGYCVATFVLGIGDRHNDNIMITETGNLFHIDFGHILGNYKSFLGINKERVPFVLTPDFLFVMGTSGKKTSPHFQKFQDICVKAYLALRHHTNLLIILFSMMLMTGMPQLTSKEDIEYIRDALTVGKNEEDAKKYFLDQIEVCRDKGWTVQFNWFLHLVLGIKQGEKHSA
UniProt P35968, whole entry: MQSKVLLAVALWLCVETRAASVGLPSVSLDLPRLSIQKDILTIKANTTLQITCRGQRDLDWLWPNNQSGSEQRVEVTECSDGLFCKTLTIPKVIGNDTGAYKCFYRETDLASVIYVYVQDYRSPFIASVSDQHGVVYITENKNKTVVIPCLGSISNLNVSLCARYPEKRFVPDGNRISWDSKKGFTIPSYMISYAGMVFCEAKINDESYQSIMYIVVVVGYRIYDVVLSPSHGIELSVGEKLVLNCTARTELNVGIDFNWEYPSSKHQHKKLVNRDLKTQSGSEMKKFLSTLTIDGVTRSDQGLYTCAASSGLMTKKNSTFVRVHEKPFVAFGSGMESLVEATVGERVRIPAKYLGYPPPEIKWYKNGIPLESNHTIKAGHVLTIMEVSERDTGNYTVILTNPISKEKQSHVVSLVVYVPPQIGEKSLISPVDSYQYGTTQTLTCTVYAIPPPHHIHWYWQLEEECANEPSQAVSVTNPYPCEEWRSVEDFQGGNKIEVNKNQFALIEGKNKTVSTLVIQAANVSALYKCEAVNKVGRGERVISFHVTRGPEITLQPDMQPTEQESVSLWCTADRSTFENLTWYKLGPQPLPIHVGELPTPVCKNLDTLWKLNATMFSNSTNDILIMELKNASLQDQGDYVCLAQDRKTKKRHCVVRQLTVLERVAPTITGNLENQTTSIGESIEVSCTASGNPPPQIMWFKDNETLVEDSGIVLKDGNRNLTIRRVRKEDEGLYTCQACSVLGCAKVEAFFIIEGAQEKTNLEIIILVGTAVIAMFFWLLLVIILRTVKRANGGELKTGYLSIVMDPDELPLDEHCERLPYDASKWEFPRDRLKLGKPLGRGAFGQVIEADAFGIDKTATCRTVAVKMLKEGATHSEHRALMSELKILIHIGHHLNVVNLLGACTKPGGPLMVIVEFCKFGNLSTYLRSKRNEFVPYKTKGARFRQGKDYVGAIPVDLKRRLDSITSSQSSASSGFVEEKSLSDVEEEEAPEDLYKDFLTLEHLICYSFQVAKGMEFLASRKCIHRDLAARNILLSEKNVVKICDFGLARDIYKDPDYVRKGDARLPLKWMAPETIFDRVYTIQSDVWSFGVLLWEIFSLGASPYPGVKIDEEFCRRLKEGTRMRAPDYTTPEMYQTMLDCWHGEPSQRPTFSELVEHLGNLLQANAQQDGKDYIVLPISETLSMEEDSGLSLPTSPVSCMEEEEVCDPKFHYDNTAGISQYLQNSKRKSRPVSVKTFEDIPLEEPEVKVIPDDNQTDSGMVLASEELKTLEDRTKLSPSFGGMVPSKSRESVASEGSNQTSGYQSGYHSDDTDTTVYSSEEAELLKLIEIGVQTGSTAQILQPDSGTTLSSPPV

For assay [1], the target named is Casein kinase I isoform gamma-2 (Homo sapiens) (UniProt P78368). As to the kind of experiment: Inhibition of CSNK1G2 (unknown origin) assessed as remaining activity at 10 uM by high-throughput assay relative to control.
For assay [2], the target named is T1, Serine/threonine-protein kinase STK11 (Homo sapiens) (UniProt Q15831).
T1 sequence (whole entry): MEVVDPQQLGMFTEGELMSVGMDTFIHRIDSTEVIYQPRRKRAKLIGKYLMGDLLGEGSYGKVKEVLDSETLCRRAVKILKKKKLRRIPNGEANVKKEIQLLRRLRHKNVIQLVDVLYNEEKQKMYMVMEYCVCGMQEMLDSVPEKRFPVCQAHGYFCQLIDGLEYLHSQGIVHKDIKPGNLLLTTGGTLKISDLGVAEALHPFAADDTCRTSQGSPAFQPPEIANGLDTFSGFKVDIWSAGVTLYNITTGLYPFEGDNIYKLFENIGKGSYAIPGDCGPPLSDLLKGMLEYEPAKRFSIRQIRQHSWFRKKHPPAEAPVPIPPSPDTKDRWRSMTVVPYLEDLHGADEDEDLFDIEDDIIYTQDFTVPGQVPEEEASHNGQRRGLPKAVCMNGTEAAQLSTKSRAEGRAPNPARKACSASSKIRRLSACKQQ
Briefly: Inhibition of LKB1 (unknown origin) assessed as remaining activity at 10 uM by high-throughput assay relative to control.

Assay [3] concerns the target MAP kinase-activated protein kinase 2 (Homo sapiens) (UniProt P49137). As to the kind of experiment: Inhibition of MAPKAPK2 (unknown origin) assessed as remaining activity at 10 uM by high-throughput assay relative to control.
The target in assay [4] is Phosphatidylinositol 4,5-bisphosphate 3-kinase catalytic subunit alpha isoform (Homo sapiens) (UniProt P42336). As to the kind of experiment: Inhibition of PIK3CA (unknown origin) assessed as remaining activity at 10 uM by high-throughput assay relative to control.
In assay [5] the target is Phosphatidylinositol 4,5-bisphosphate 3-kinase catalytic subunit gamma isoform (Homo sapiens) (UniProt P48736). Briefly: Inhibition of PIK3CG (unknown origin) assessed as remaining activity at 10 uM by high-throughput assay relative to control.
The target in assay [6] is T2, TGF-beta receptor type-1 (Homo sapiens) (UniProt P36897).
T2 sequence (whole entry): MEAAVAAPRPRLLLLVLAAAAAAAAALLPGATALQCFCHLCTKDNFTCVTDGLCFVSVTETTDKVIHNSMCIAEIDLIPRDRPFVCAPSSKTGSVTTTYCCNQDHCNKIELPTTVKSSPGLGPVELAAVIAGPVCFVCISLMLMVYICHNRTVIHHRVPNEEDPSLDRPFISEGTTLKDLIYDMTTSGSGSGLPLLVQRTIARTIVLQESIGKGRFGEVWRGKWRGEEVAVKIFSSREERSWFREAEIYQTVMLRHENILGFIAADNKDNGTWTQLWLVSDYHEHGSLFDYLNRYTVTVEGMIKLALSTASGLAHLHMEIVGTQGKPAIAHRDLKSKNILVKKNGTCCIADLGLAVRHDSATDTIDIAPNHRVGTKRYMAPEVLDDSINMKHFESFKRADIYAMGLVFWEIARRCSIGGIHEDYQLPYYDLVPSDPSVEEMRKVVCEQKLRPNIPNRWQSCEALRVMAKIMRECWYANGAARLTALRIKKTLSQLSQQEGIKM
As to the kind of experiment: Inhibition of TGFBR1 (unknown origin) assessed as remaining activity at 10 uM by high-throughput assay relative to control.

Assay [7] has as its target Vascular endothelial growth factor receptor 2 (Homo sapiens) (UniProt P35968). Briefly: Inhibition of VEGFR2 (unknown origin) assessed as remaining activity at 10 uM by high-throughput assay relative to control.
For assay [8], the system named is AKT1 (Homo sapiens). Briefly: Inhibition of AKT1 (unknown origin) assessed as remaining activity at 10 uM by high-throughput assay relative to control.
Assay [9] deals with AKT2 (Homo sapiens). As to the kind of experiment: Inhibition of AKT2 (unknown origin) assessed as remaining activity at 10 uM by high-throughput assay relative to control.
The test system of assay [10] is IGF1R (Homo sapiens). As to the kind of experiment: Inhibition of IGF1R (unknown origin) assessed as remaining activity at 10 uM by high-throughput assay relative to control.

As to `O=C1c2ccccc2-c2c1oc1ccccc1c2=O`, the Activity in assay [1] was determined as 81%; in assay [2], 88%; in assay [3], 88%; in assay [4], 81%; in assay [5] it was 86%; in assay [6], 81%. In addition, the Activity in assay [7] came out at 88%; in assay [8], 88%; in [9] it was 81%; in assay [10], 86%.
